This is a selection; strong and weak results do not stand in their true shares. The source made the active and inactive calls.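 Rule for the calls: active = activation above the mean of all tested compounds plus 3 SD (cut at about 21% in these data); inactive = the rest.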
biological target: Caspase-3 (Homo sapiens) (UniProt P42574); assay: procaspase-3 enzyme activation – biochemical, absorbance, PC-3 D3A mutant, single concentration, primary screen (AID 463141); conditions: recombinant procaspase-3 D3A, Ac-DEVD-pNA absorbance 405 nm; at 8.5 µM; hits give high values;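 note: 0% = DMSO alone and 100% = DMSO wells spiked with extra 5 µM PC-3 D3A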

Protein sequences, listed by entry. Tags and fused reporters are not part of them.
UniProt P42574, whole entry D9A/D28A/D175A: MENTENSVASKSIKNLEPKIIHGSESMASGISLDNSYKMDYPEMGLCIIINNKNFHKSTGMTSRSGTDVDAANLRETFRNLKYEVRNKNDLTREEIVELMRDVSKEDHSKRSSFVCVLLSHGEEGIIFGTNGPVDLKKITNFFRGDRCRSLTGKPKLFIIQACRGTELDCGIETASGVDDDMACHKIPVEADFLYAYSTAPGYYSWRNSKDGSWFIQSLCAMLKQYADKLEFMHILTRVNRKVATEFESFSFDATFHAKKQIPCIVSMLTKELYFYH

Row | Structure (SMILES) | activation
1 | CP(=O)(Nc1ccc(Cl)cc1)Oc1ccc(F)cc1 (configuration not stated) | inactive: -2.49%
2 | COc1ccccc1OP(C)(=O)Nc1ccccc1Br (configuration not stated) | inactive: -4.39%
3 | CC(C)(C)c1ccc(OP(C)(=O)O)cc1 | inactive: -4.66%
4 | CP(=O)(OC12CC3CC(CC(C3)C1)C2)OC12CC3CC(CC(C3)C1)C2 | inactive: 6.17%
5 | CCOC(=O)c1ccc(NP(C)(=O)Oc2ccc(Cl)cc2)cc1 (configuration not stated) | inactive: -12.1%
6 | Nc1ccc2c(ccc3cccnc32)n1.O=[N+]([O-])c1cc([N+](=O)[O-])c(O)c([N+](=O)[O-])c1 | inactive: -6.24%
7 | COc1ccc(OP(C)(=O)Nc2ccccc2Br)cc1 (configuration not stated) | inactive: 9.15%
8 | COc1ccccc1OP(C)(=O)Nc1ccc(C)c(C)c1 (configuration not stated) | inactive: -2.31%
9 | Cc1cc(C)cc(OP(C)(=O)Nc2cccc(C(F)(F)F)c2)c1 (configuration not stated) | inactive: -10.6%
10 | CP(=O)(Nc1ccc(Cl)cc1Cl)Oc1ccccc1 (configuration not stated) | inactive: 6%
11 | CP(=O)(OCCOc1ccccc1)OCCOc1ccccc1 | inactive: 13.2%
12 | Cc1nc2ccc3ccccc3c2o1.O=[N+]([O-])c1cc([N+](=O)[O-])c(O)c([N+](=O)[O-])c1 | inactive: 6.16%
13 | CN(C)CCOC(=O)C(O)(c1ccccc1)C1CCCC1 (configuration not stated) | inactive: 4.44%
14 | COc1ccc(OP(C)(=O)Nc2ccccn2)cc1 (configuration not stated) | inactive: 14.2%
15 | COc1ccccc1OP(C)(=O)Nc1ccc(Br)cc1 (configuration not stated) | inactive: 8.6%
16 | CCc1ccc(OP(C)(=O)O)cc1 | inactive: -9.76%
17 | COc1ccccc1OP(C)(=O)Nc1ccc(C)cc1C (configuration not stated) | inactive: -0.7%
18 | CP(=O)(Nc1ccccn1)Oc1ccccc1 (configuration not stated) | inactive: 0.9%
19 | Cc1c(NP(C)(=O)Oc2ccc(C(C)C)cc2)c(=O)n(-c2ccccc2)n1C (configuration not stated) | inactive: 0.97%
20 | O=[N+]([O-])c1cc([N+](=O)[O-])c(Nc2ccccn2)c([N+](=O)[O-])c1 | inactive: -7.68%
21 | CCN(CC)CCCOC(=O)C(O)(c1ccccc1)c1ccccc1 | inactive: 10.8%

Row | Structure (SMILES) | activation
22 | Cc1cccc(C)c1OP(C)(N)=O (configuration not stated) | inactive: -2.48%
23 | CC(C)(C)c1ccc(OP(C)(=O)Nc2ccc(SC(F)(F)F)cc2)cc1 (configuration not stated) | inactive: -5.85%
24 | O=[N+]([O-])c1ccc2c(c1)C=Nc1ccccc1O2 | inactive: 1.47%
25 | O=[N+]([O-])c1cc([N+](=O)[O-])c(Nc2cccnc2)c([N+](=O)[O-])c1 | inactive: -1.66%
26 | COc1ccc(OP(C)(=O)Nc2cccc(F)c2)cc1 (configuration not stated) | inactive: -6.63%
27 | COc1ccccc1OP(C)(=O)Nc1cc(Cl)ccc1C (configuration not stated) | inactive: 3.81%
28 | Cc1cc(C)cc(OP(C)(N)=O)c1 (configuration not stated) | inactive: -3.66%
29 | CCOC(=O)c1ccc(NP(C)(=O)Oc2ccccc2)cc1 (configuration not stated) | inactive: 14.2%
30 | Cc1ccc(NP(C)(=O)Oc2ccccc2)c(C)c1 (configuration not stated) | inactive: 6.91%
31 | COc1ccccc1OP(C)(=O)Nc1ccc(C)cc1 (configuration not stated) | inactive: -2.99%
32 | COc1ccccc1OP(C)(=O)Nc1ccccc1 (configuration not stated) | inactive: 0.37%
33 | CP(=O)(Nc1ccccc1Br)Oc1ccccc1 (configuration not stated) | inactive: 11.6%
34 | CP(=S)(Nn1cnnc1)Oc1ccccc1 (configuration not stated) | inactive: -24.2%
35 | Cc1cc(C)cc(OP(C)(=O)Nc2ccc(SC(F)(F)F)cc2)c1 (configuration not stated) | inactive: 1.14%
36 | CP(=O)(NC(=O)Nc1ccccc1)Oc1ccccc1 (configuration not stated) | inactive: 2.95%
37 | CCc1ccc(OP(C)(=O)N2CCN(c3ccc([N+](=O)[O-])cc3)CC2)cc1 (configuration not stated) | inactive: -7.32%
38 | CP(=O)(Oc1ccccc1)OC(c1ccccc1)C(F)(F)F (configuration not stated) | inactive: 2%
39 | Cc1cccc(C)c1OP(C)(=O)Nc1ccc(SC(F)(F)F)cc1 (configuration not stated) | inactive: -10.8%
40 | CP(=O)(Nc1ccc(SC(F)(F)F)cc1)Oc1ccc(Cl)cc1 (configuration not stated) | inactive: -5.05%
41 | CP(=O)(Nc1ccccn1)Oc1ccc(Cl)cc1 (configuration not stated) | inactive: 1.44%
42 | CCOP(C)(=S)SCC(=O)NC(C)C(=O)O (configuration not stated) | inactive: -0.36%

Row | Structure (SMILES) | activation
43 | CCOC(=O)c1ccc(NP(C)(=O)Oc2ccc(OC)cc2)cc1 (configuration not stated) | inactive: 5.55%
44 | O=[N+]([O-])c1cc([N+](=O)[O-])c(O)c([N+](=O)[O-])c1.c1ccc(Oc2ccncc2)cc1 | inactive: -10.9%
45 | O=[N+]([O-])c1cc([N+](=O)[O-])c(-n2nnc3ccccc32)c([N+](=O)[O-])c1 | inactive: -0.6%
46 | Cc1nc2ccc3ccccc3c2s1.O=[N+]([O-])c1cc([N+](=O)[O-])c(O)c([N+](=O)[O-])c1 | inactive: -14.5%
47 | O=[N+]([O-])c1cc([N+](=O)[O-])c(-c2cnn(-c3ccccc3)c2)c([N+](=O)[O-])c1 | inactive: 3.37%
48 | CCOC(=O)C(CC)C1=NC(C)(C)Cc2ccccc21.O=[N+]([O-])c1cc([N+](=O)[O-])c(O)c([N+](=O)[O-])c1 (configuration not stated) | inactive: 2.38%
49 | CC1=C2N=C(C=C3N=C(C(C)=C4[N-][C@@](C)([C@@H]5N=C1[C@](C)(CCC(=O)NC[C@@H](C)OP(=O)([O-])O[C@H]1[C@@H](O)[C@@H](n6cnc7cc(C)c(C)cc76)O[C@@H]1CO)[C@H]5CC(N)=O)[C@@](C)(CC(N)=O)[C@@H]4CCC(N)=O)[C@@](C)(CC(N)=O)[C@@H]3CCC(N)=O)C(C)(C)[C@@H]2CCC(N)=O.[C-]#N.[Co+3] | inactive: -12%
50 | O=[N+]([O-])c1cc([N+](=O)[O-])c(Nc2nnnn2CCO)c([N+](=O)[O-])c1 | inactive: -5.95%
51 | CCCOc1ccc(NP(C)(=O)Oc2ccc(Cl)cc2)cc1 (configuration not stated) | inactive: 3.77%
52 | CP(=O)(Nc1ccc(SC(F)(F)F)cc1)Oc1ccccc1 (configuration not stated) | inactive: -0.64%
53 | COc1ccccc1OP(C)(=O)Nc1c(C)cccc1C (configuration not stated) | inactive: 4.3%
54 | CN1CCCCC1COC(=O)C1(O)c2ccccc2CCc2ccccc21 (configuration not stated) | inactive: 8.4%
55 | O=C(O)c1cccc(Nc2c([N+](=O)[O-])cc([N+](=O)[O-])cc2[N+](=O)[O-])c1 | inactive: 4.13%
56 | CC1=NCCc2c1[nH]c1ccccc21.O=[N+]([O-])c1cc([N+](=O)[O-])c(O)c([N+](=O)[O-])c1 | inactive: 3.54%
57 | Cc1cc(C)cc(OP(C)(=O)Nc2ccc(C)cc2C)c1 (configuration not stated) | inactive: -4.03%
58 | CCOC(=O)c1ccc(NP(C)(=O)Oc2cc(C)cc(C)c2)cc1 (configuration not stated) | inactive: 2.77%
59 | COc1ccccc1OP(C)(=O)Nc1cccc(Br)c1 (configuration not stated) | inactive: 4.93%
60 | Cc1cc(C)cc(OP(C)(=O)Nc2ccccn2)c1 (configuration not stated) | inactive: 6.05%
61 | CP(=O)(Nc1cccc(Br)c1)Oc1ccccc1 (configuration not stated) | inactive: 8.71%
62 | Cc1ccc(C)c(NP(C)(=O)Oc2ccccc2)c1 (configuration not stated) | inactive: -8.01%
